Results from PMC5639367 (2017).

The chains behind the UniProt entries cited, without tags or fusion partners. A line that says so, or that is headed by a name, gives the form on record, which may keep a tag or linker. Residues count along the entry.
UniProt P40337, 54-213, chain 1 of 3: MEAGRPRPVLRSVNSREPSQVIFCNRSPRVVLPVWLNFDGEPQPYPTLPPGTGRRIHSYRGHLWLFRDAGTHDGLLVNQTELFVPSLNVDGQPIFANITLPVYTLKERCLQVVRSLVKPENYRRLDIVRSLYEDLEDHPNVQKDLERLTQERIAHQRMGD
VBC ternary complex (pVHL, Elongin B, Elongin C), UniProt Q15370, 1-104, chain 2 of 3: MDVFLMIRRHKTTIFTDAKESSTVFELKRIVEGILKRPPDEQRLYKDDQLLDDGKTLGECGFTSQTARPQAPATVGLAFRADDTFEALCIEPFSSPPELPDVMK
VBC ternary complex (pVHL, Elongin B, Elongin C), UniProt Q15369, other isoform, or with tags, fused parts or gaps, chain 3 of 3: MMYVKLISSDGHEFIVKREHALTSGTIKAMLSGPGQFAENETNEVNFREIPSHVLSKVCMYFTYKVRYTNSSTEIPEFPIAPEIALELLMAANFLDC

These binders were tested against VBC ternary complex (pVHL, Elongin B, Elongin C) (UniProt P40337 1-213; Q15370 1-104; Q15369 17-112) (assay: BLI).
For MSLKPRV (C-terminal amide) [N-terminal Cul2 peptide, 7-mer], the Kd was 3.5 mM. With MSLKPR (C-terminal amide) [N-terminal Cul2 peptide, 6-mer] the Kd was 3.3 mM. With MSLKPRVVDF (C-terminal amide) [N-terminal Cul2 peptide, 10-mer] the Kd was 4 mM.
